Data from US20120077779A1, “Inhibitors of Fibroblast Activation Protein Alpha” (Trustees of Tufts College, priority 2005, published 2012).

Amino acid sequences for entries named in this document (tags omitted).
UniProt Q12884, whole entry: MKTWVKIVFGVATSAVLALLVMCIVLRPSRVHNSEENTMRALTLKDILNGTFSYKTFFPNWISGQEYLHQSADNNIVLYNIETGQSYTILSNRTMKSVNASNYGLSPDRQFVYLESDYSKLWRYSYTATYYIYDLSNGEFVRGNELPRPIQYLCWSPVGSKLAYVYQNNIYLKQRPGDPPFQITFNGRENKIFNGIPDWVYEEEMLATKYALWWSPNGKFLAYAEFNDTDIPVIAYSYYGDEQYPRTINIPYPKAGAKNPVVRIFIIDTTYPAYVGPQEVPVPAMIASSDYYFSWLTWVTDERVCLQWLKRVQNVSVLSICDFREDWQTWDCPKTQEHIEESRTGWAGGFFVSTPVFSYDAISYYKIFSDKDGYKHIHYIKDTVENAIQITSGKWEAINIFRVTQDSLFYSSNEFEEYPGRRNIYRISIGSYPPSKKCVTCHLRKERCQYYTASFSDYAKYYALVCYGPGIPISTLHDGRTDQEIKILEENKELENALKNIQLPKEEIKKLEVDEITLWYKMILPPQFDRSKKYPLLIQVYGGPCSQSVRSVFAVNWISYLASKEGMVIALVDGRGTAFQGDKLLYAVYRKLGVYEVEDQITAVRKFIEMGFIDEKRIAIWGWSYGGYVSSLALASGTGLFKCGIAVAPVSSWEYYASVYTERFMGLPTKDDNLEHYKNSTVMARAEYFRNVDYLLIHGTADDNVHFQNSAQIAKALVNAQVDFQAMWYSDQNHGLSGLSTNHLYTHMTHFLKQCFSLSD
UniProt P27487, whole entry: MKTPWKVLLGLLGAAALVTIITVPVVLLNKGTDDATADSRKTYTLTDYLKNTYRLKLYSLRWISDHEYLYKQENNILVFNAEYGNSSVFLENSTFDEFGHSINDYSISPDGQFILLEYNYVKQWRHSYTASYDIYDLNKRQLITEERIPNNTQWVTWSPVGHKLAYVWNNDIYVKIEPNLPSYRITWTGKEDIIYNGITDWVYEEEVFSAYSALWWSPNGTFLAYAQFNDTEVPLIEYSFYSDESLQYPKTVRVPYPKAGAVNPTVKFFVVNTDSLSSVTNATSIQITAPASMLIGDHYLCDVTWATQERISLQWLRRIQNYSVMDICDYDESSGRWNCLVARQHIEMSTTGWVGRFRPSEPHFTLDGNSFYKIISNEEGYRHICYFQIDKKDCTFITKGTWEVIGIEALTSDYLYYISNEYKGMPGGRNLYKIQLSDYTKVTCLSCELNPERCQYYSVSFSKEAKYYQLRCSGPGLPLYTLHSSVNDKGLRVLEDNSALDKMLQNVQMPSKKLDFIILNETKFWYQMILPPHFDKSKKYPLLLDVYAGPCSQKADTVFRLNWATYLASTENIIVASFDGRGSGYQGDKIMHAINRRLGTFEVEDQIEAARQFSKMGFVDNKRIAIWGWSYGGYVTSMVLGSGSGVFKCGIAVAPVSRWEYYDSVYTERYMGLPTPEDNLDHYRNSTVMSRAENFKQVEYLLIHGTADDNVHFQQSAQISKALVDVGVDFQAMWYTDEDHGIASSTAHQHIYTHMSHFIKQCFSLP

Columns and labels:
FAP = FAP (Homo sapiens, UniProt Q12884); assay: Enzymatic activity of purified FAP, chromogenic substrate H-Ala-Pro-pNA; format: biochemical; details: read-out: IC50 FAP (pH 7.4); pH 7.4, 25° C., 10 min pre-incubation with enzyme
DPP IV = DPP IV (Homo sapiens, UniProt P27487); assay: DPP IV inhibition (Table 1); format: biochemical; details: read-out: IC50 DPP IV (pH 8.0)

Row | SMILES | IC50 (FAP) | IC50 (DPP IV)
1 | O=C1c2ccccc2C(=O)N1CC(=O)N1CCC[C@H]1B(O)O | 150 nM | 
2 | O=C(NCC(=O)N1CCC[C@H]1B(O)O)c1cnccn1 | 82 nM | 
3 | O=C(CNCc1ccccc1)N1CCC[C@H]1B(O)O | 15000 nM | 69000 nM
4 | NS(=O)(=O)c1ccc(C(=O)NCC(=O)N2CCC[C@H]2B(O)O)cc1 | 20 nM | 
5 | CC(C)(C)NCC(=O)N1CCC[C@H]1B(O)O | 400 nM | 43 nM
6 | O=C(NCC(=O)N1CCC[C@H]1B(O)O)Nc1ccccc1 | 7.1 nM | 
7 | O=C(NCC(=O)N1CCC[C@H]1B(O)O)c1ccc2ccccc2c1 | 10 nM | 
8 | O=C(CNS(=O)(=O)c1ccccc1)N1CCC[C@H]1B(O)O | 34 nM | 
9 | O=C(CNC1CCCCC1)N1CCC[C@H]1B(O)O |  | 940 nM
10 | O=C(CCc1ccccc1)NCC(=O)N1CCC[C@H]1B(O)O | 44 nM | 
11 | O=C(NCC(=O)N1CCC[C@H]1B(O)O)NCc1ccccc1 | 7.2 nM | 
12 | O=C(NCC(=O)N1CCC[C@H]1B(O)O)OCc1ccccc1 | 24 nM | > 32000 nM
13 | O=C(CNc1ccccc1)N1CCC[C@H]1B(O)O | 1900 nM | 18000 nM
